This is a sample that favours compounds with a hit; in the whole collection about 1.8% have one here.
DENV2 CPE – inhibitors of DENV2 cytopathic effect, primary screen, cell-based, plate reader, single concentration; AID 651640, 2012; CPE inhibition, % at 9.99 µM; 350,000 tested, 1.7% active; DENV2-infected cells, cytopathic effect rescue; in the data active means CPE inhibition above about 20%, passing the limit was not always enough; inconclusive means no clear call, values can overlap the other calls; tested in BHK-21 cells;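 further: 0% = median of neutral control wells and 100% = median of positive control wells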
Cneo AK release – Cryptococcus neoformans cell lysis inducers, primary screen, AK release luminescence, single concentration; lysis activity, % at 15 µM; AID 651654, 2012; C. neoformans lysis, adenylate kinase release luminescence, 4 h; normalised: neutral wells 0, clomiphene wells 100; 360,000 tested, 0.2% active;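 active means mean lysis activity across replicates of at least 80%, whatever share of replicates individually reach that level; inactive means mean lysis activity below 80%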
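Schedule: static 4 h at 37 °C with compound, 1 h detection; system: C. neoformans cells; benchmarks: Clomiphene as positive control; buffer or medium: fresh YPD medium; measure: luminescence rise reflecting yeast cell lysis; measured by: luminescent adenylate kinase detection reagent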
Yeast UUG start-1 – yeast start codon fidelity modulation; AID 602363; activity score, % at 18.7 µM; S. cerevisiae UUG-firefly luciferase reporter, luminescence/redox ratio; 0.13% of 350,000 active;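 active means replicate mean at a twofold rise or more, about +100% in these data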;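 further: firefly luciferase made from a UUG start codon reports start codon fidelity; reporter light over untreated wells divided by growth signal over untreated wells; some hits fall short of that in this replicate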
E-selectin induc – E-selectin induction in HUVECs, primary screen, imaging, HUVEC, immunofluorescence imaging, single point. normalized: neutral wells 0, TNF-alpha wells 100. activation, % at 7.58 µM. 260,000 tested, 0.37% active;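 active means mean E-selectin-positive cell signal at least 10% of the positive control, reached in at least 60% of replicates, without over 20% cell loss; inconclusive means no rule given, readout overlaps actives, possibly toxicity-flagged; inactive means the rest, including those meeting only one limit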
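material = human umbilical vein endothelial cells (HUVEC), E-selectin induction | quantity = 3,000 cells/well | medium = EGM-2 growth medium on 0.1% gelatin-coated wells | technique = immunofluorescence imaging | read-out basis = % PE-positive cells | control set = TNF-alpha positive control, DMSO neutral control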
Yeast UUG start-2 – enhancers of UUG start codon usage in yeast, dose response, S. cerevisiae, UUG firefly luciferase, cherry-pick, set 2; shares compounds with Yeast UUG start-1; luminescence, 4 h; 100% means double the DMSO signal; activation, % at 38 µM; 540 tested, under 10 active;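 active means signal increase whose fitted curve reaches an absolute level of 40 at a concentration under 10 µM; inactive means activity opposite to the expected increase, or the rest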
Starred values were filed as active, the others as inactive; i = inactive; ? = inconclusive; . = no result given.

Molecule	DENV2 CPE	Cneo AK release	Yeast UUG start-1	E-selectin induc	Yeast UUG start-2
O=C(Cc1c[nH]c2ccccc12)N1CCc2ccccc21	.	-4	344*	.	-1
CCCC(=O)Nc1ccccc1NC(=O)c1ccc(OCC)c(OCC)c1	3	.	.	.	.
CCCC(=O)Nc1ccccc1NC(=O)c1ccc(OC(C)=O)cc1	1	-3	444*	.	12
COC(=O)C1=C2CC[C@H](CO)NC(=O)N[C@H](Cc3ccccc3)C(=O)NCc3cn(nn3)C[C@@H](Cc3ccccc3)NC(=O)c3oc(c(C(=O)OC)c3C(=O)OC)CC[C@H](CO)NC(=O)N[C@H](Cc3ccccc3)C(=O)NCc3cn(nn3)C[C@@H](Cc3ccccc3)NC(=O)C(=C1C(=O)OC)O2	?	51	63	.	.
COC(=O)c1c2oc(c1C(=O)OC)C(=O)N[C@@H](Cc1ccccc1)Cn1cc(nn1)[C@@H](Cc1ccccc1)NC(=O)N[C@@H](CO)CC2	6	0	.	.	.
COC(=O)c1c2oc(c1C(=O)OC)C(=O)N[C@H](Cc1ccccc1)Cn1cc(nn1)CNC(=O)[C@H](Cc1ccccc1)NC(=O)N[C@@H](CO)CC2	11	7	216*	.	i
COC(=O)c1c2oc(c1C(=O)OC)C(=O)N[C@@H](Cc1ccccc1)Cn1cc(nn1)CNC(=O)[C@H](Cc1ccccc1)NC(=O)N[C@@H](CO)CC2	5	-7	113*	.	i
CC(=O)N(C)C[C@H]1Oc2cc(C#Cc3ccccc3)ccc2S(=O)(=O)N([C@@H](C)CO)C[C@H]1C	14	-4	8	0	.
CCN(CC)CC(=O)N1c2ccccc2CCc2ccc(NC(=O)c3cc(OC)c(OC)c(OC)c3)cc21	-11	2	active	0	0
O=C(Nc1cccnc1Cl)c1cccc(F)c1	3	.	.	4	.

(next part)
Molecule	DENV2 CPE	Cneo AK release	Yeast UUG start-1	E-selectin induc	Yeast UUG start-2
Cc1cccc(C(=O)Nc2cccnc2Cl)c1	3	-3	146*	.	1
O=C(O)C(c1ccccc1)C(c1ccccc1)c1ccccc1 (stereo not given)	-2	0	431*	.	2
C[C@H](CO)N1C[C@H](C)[C@H](CN(C)CC2CC2)Oc2cc(C#Cc3ccccc3F)ccc2S1(=O)=O	?	-7	1	0	.
Cc1ccc(S(=O)(=O)N[C@@H]2CC[C@@H](CCn3cc(C(C)C)nn3)O[C@@H]2CO)cc1	-7	0	-2	-1	.
OC(CCN1CCCCC1)(c1ccccc1)C1C[C@@H]2C=C[C@H]1C2 (stereo not given in full)	-4	0	-15	0	.
CN1CCN(CC#CC(C)(O)C2CC3C=CC2C3)CC1 (stereo not given)	.	-1	166*	.	0
COc1nc(-c2ccccc2)ccc1-c1noc(-c2cccs2)n1	.	-1	-12	.	.
COc1nc(C)ccc1-c1noc(-c2cccs2)n1	-5	2	528*	.	-24
C[C@@H]1CCCCO[C@H](CN(C)C(=O)NC2CCCCC2)[C@H](C)CN([C@@H](C)CO)C(=O)c2cc(NC(=O)Nc3ccc4c(c3)OCO4)ccc2O1	0	3	-5	.	.
C[C@H](CO)N1C[C@H](C)[C@H](CN(C)C(=O)c2cccnc2)Oc2ncc(-c3ccc(C#N)cc3)cc2C1=O	1	-5	154*	0	i

Given with values under each structure: part of the list above.
Second line of a record – DENV2 CPE, Cneo AK release, Yeast UUG start-1, E-selectin induc, Yeast UUG start-2
- Cc1cccc(C(=O)Nc2cccnc2Cl)c1
    3, -3, 146*, ., 1
- O=C(O)C(c1ccccc1)C(c1ccccc1)c1ccccc1 (stereo not given)
    -2, 0, 431*, ., 2

The listing continues:
Molecule	DENV2 CPE	Cneo AK release	Yeast UUG start-1	E-selectin induc	Yeast UUG start-2
C[C@@H]1CN([C@@H](C)CO)C(=O)c2cc(-c3cccc(F)c3)cnc2O[C@@H]1CN(C)C(=O)c1cccc(F)c1	1	-1	active	0	i
C[C@H]1CN([C@@H](C)CO)C(=O)c2cc(-c3ccc(C#N)cc3)cnc2O[C@H]1CN(C)C(=O)c1cccnc1	3	4	-6	0	.
CCOC(=O)NNC(=O)C12CC3CC(CC(C3)C1)C2	2	1	489*	4	-10
COc1cccc(C(C(=O)NCc2ccco2)N(Cc2ccco2)C(=O)Cn2nnc3ccccc32)c1 (stereo not given)	.	-3	-14	.	.
COc1ccc(OC)c(C(C(=O)NCc2ccco2)N(C(=O)Cn2nnc3ccccc32)C(C)C)c1 (stereo not given)	.	1	196*	.	18
C[C@@H]1CN([C@H](C)CO)C(=O)Cc2cc(NS(=O)(=O)c3cccs3)ccc2O[C@@H]1CN(C)S(=O)(=O)c1ccc(Cl)cc1	-5	-2	0	0	.
Cn1nc(CC(=O)Nc2ccc3c(c2)CCC3)c2ccccc2c1=O	.	-1	-10	.	-3
COc1ccc(CCNC(=O)Cc2nn(C)c(=O)c3ccccc23)cc1OC	.	0	6	.	-8
COc1ccc(NC(=O)Cc2nn(C)c(=O)c3ccccc23)cc1	.	.	.	.	i
COc1ccc(NC(=O)COc2ccc(-c3nn(C)c(=O)c4ccccc34)cc2)cc1	6	-4	0	0	.

Continued, starting with the last 3 of the part before.
Molecule	DENV2 CPE	Cneo AK release	Yeast UUG start-1	E-selectin induc	Yeast UUG start-2
COc1ccc(CCNC(=O)Cc2nn(C)c(=O)c3ccccc23)cc1OC	.	0	6	.	-8
COc1ccc(NC(=O)Cc2nn(C)c(=O)c3ccccc23)cc1	.	.	.	.	i
COc1ccc(NC(=O)COc2ccc(-c3nn(C)c(=O)c4ccccc34)cc2)cc1	6	-4	0	0	.
COc1ccc(CCNC(=O)CNC(=O)c2nn(-c3ccc(OC)c(OC)c3)c(=O)c3ccccc23)cc1OC	2	-1	-5	0	.
Cn1nc(CC(=O)Nc2ccc(OC(=O)c3ccccc3)cc2)c2ccccc2c1=O	.	.	.	.	i
Cn1nc(CC(=O)Nc2ncc(Br)s2)c2ccccc2c1=O	.	-2	-20	.	.
Cc1noc(C)c1NC(=O)Nc1ccc2c(c1)C(=O)N([C@@H](C)CO)C[C@@H](C)[C@@H](CN(C)C(=O)Nc1ccc3c(c1)OCO3)O2	-6	29	13	0	.
C[C@@H]1CN([C@H](C)CO)C(=O)Cc2cc(NS(C)(=O)=O)ccc2O[C@H]1CN(C)C(=O)Nc1cccc2ccccc12	0	-3	.	.	.
COc1cccc(S(=O)(=O)N[C@H]2CC[C@H](CCn3cc(-c4ccc(F)cc4)nn3)O[C@H]2CO)c1	0	0	14	-1	.
O=S(=O)(c1ccc(F)cc1)N1CC[C@@H]2[C@H](CO)Nc3ccc(-c4ccc(F)cc4)cc3[C@@H]21	-6	0	-6	-1	.
CC(C)C[C@@H](CN)NC(=O)c1nc[nH]c1C(=O)N[C@@H](CC(C)C)C(=O)CNC[C@H](C)NC(=O)c1nc[nH]c1C(=O)N[C@@H](CC(C)C)C(=O)O	.	-5	5	.	.
CC(C)C[C@@H](CN)NC(=O)c1nc[nH]c1C(=O)N[C@@H](Cc1c[nH]c2ccccc12)C(=O)CNC[C@H](C)NC(=O)c1nc[nH]c1C(=O)N[C@@H](CC(=O)O)C(=O)O	1	-3	180*	0	7
CC12CCC(C(=O)N(CC(O)CN3CCN(Cc4ccccc4)CC3)C1=O)C2(C)C (stereo not given)	2	0	102*	.	-5
CCN(CC)c1ccc(C=Nc2ccc(C#N)cc2)c(O)c1	.	-4	466*	.	-6
COC(=O)c1ccc(Cc2ccc(C(=O)OC)o2)o1	.	1	-11	.	.
COC(=O)c1ccc(COC(=O)c2ccc(CO)cc2)o1	3	0	185*	.	-1
